System: C. difficile
Parameters: species or system hamsters
Conditions: hamster, in vivo
Description: Hamsters received one dose of clindamycin orogastrically (10 mg/kg). In some experiments, the hamsters were inoculated orogastrically with 10^3-10^4 C. difficile spores one day after exposure to clindamycin. In other experiments, no spores were given and the Clindamycin-treated hamsters were allowed to acquire infection from their environment. To assess colonization, three fecal pellets were collected from each hamster, and the pellets were solubilized in sterile PBS or ethanol and then swabbed onto C. difficile-selective agar and cultured anaerobically at 36° C. for 24-28 hours. Colonization was considered positive when feces yielded colonies with typical C. difficile morphology that fluoresced green under UV light. Colonized hamsters were assigned to treatment groups that received orogastric treatment with nanocrystalline silver (40-120 mg/kg/day), placebo suspension, or vancomycin (25 mg/kg/day). Prophylactic treatments were given once per day for three days prior to, and on, the day of clindamycin treatment.

## Nanocrystalline silver [Nano-Ag]
  colonization: 0%

— patent publication US8425880B1, “Metal-containing materials for treatment of bacterial conditions” (priority 2007, dated 2013)
